Earlier results on 1 compound are cited in patent publication US9518008B2, “(1S,2S,3S,4R)-3-[(1S)-1-acetylamino-2-ethyl-butyl]-4-uanidino-2-hydroxyl-cyclopentyl-1-carboxylic acid hydrates pharmaceutical uses thereof” (Institute of Pharmacology and Toxicology Academy of …, priority 2007, dated 2016).

Each structure is given as a SMILES string. Like-named read-outs stand apart in the source and are kept apart here.

One series has as its system cells. Conditions: cited from earlier work.
For series [1] the following is noted: rats; cited from earlier work.
The conditions of series [2]: mice; cited from earlier work.

On to `CCC(CC)[C@H](NC(C)=O)[C@H]1[C@H](O)[C@@H](C(=O)O)C[C@H]1NC(=N)N` [Anhydrous, (1S,2S,3S,4R)-3-[(1S)-1-acetylamino-2-ethyl-butyl]-4-guanidino-2-hydroxy-cyclopentyl-1-carboxylic acid], for which the “dose non-toxic to cells” value with cells is at most 328 µg/mL. The “dose without acute toxic reaction” value in series [1] and in series [2] was “up to 3000 mg/kg/day” in each case.
